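Cultured in 96-well plates, cells were exposed to test compound for 48 hours across five concentrations. GI50 = concentration required for 50% inhibition of growth. TGI: concentration producing complete growth inhibition.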
What was measured:
Assay in all cases: growth of human tumour cells (NCI), 48 h
786-0 renal = test system: 786-0 renal
A498 renal = test system: A498 renal
A549 NSCLC = test system: A549 NSCLC
ACHN renal = test system: ACHN renal
CAKI-1 renal = test system: CAKI-1 renal
CCRF-CEM leukemia = test system: CCRF-CEM leukemia
COLO 205 colon = test system: COLO 205 colon
DU-145 prostate = test system: DU-145 prostate
EKVX NSCLC = test system: EKVX NSCLC
HCC-2998 colon = test system: HCC-2998 colon
HCT-116 colon = test system: HCT-116 colon
HCT-15 colon = test system: HCT-15 colon
HL-60(TB) leukemia = test system: HL-60(TB) leukemia
HOP-62 NSCLC = test system: HOP-62 NSCLC
HOP-92 NSCLC = test system: HOP-92 NSCLC
HS 578T breast = test system: HS 578T breast
HT29 colon = test system: HT29 colon
IGROV1 ovarian = test system: IGROV1 ovarian
K-562 leukemia = test system: K-562 leukemia
KM12 colon = test system: KM12 colon
LOX IMVI melanoma = test system: LOX IMVI melanoma
M14 melanoma = test system: M14 melanoma
MALME-3M melanoma = test system: MALME-3M melanoma
MCF7 breast = test system: MCF7 breast
MDA-MB-231 breast = test system: MDA-MB-231 breast
MDA-MB-435 = test system: MDA-MB-435
MDA-N = test system: MDA-N
MOLT-4 leukemia = test system: MOLT-4 leukemia
NCI-H226 lung = test system: NCI-H226 lung
NCI-H23 lung = test system: NCI-H23 lung
NCI-H322M lung = test system: NCI-H322M lung
NCI-H460 lung = test system: NCI-H460 lung
NCI-H522 lung = test system: NCI-H522 lung
NCI/ADR-RES ovarian = test system: NCI/ADR-RES ovarian
OVCAR-3 ovarian = test system: OVCAR-3 ovarian
OVCAR-4 ovarian = test system: OVCAR-4 ovarian
OVCAR-5 ovarian = test system: OVCAR-5 ovarian
OVCAR-8 ovarian = test system: OVCAR-8 ovarian
PC-3 prostate = test system: PC-3 prostate
RPMI-8226 leukemia = test system: RPMI-8226 leukemia
RXF 393 renal = test system: RXF 393 renal
SF-268 CNS = test system: SF-268 CNS
SF-295 CNS = test system: SF-295 CNS
SF-539 CNS = test system: SF-539 CNS
SK-MEL-2 melanoma = test system: SK-MEL-2 melanoma
SK-MEL-28 melanoma = test system: SK-MEL-28 melanoma
SK-MEL-5 melanoma = test system: SK-MEL-5 melanoma
SK-OV-3 ovarian = test system: SK-OV-3 ovarian
SN12C renal = test system: SN12C renal
SNB-19 CNS = test system: SNB-19 CNS
SNB-75 CNS = test system: SNB-75 CNS
SR leukemia = test system: SR leukemia
SW-620 colon = test system: SW-620 colon
T-47D breast = test system: T-47D breast
TK-10 renal = test system: TK-10 renal
U251 CNS = test system: U251 CNS
UACC-257 melanoma = test system: UACC-257 melanoma
UACC-62 melanoma = test system: UACC-62 melanoma
UO-31 renal = test system: UO-31 renal

`NNc1nc2nonc2nc1NN` showed a GI50 (786-0 renal) of 23.9 µM, a TGI (786-0 renal) of 72.2 µM and a GI50 (A498 renal) of over 100 µM. For the same molecule, the TGI (A498 renal) was over 100 µM, the GI50 (A549 NSCLC) was 42.8 µM and the TGI (A549 NSCLC) was over 100 µM. It also gave a GI50 (ACHN renal) of 43.5 µM, a TGI (ACHN renal) of over 100 µM and a GI50 (CAKI-1 renal) of 74.6 µM. The TGI (CAKI-1 renal) was over 100 µM, the GI50 (CCRF-CEM leukemia) was 42.7 µM and the TGI (CCRF-CEM leukemia) was over 100 µM. The GI50 (COLO 205 colon) was 23.4 µM, the TGI (COLO 205 colon) was 64.8 µM and the GI50 (DU-145 prostate) was 32.7 µM. For the same molecule, the TGI (DU-145 prostate) was over 100 µM, the GI50 (EKVX NSCLC) was 20.9 µM and the TGI (EKVX NSCLC) was 58.9 µM. The GI50 (HCC-2998 colon) was 52.8 µM, the TGI (HCC-2998 colon) was over 100 µM and the GI50 (HCT-116 colon) was 28.8 µM. The TGI (HCT-116 colon) was over 100 µM, the GI50 (HCT-15 colon) was 33.3 µM and the TGI (HCT-15 colon) was 78.9 µM. For the same molecule, the GI50 (HL-60(TB) leukemia) was 51.7 µM, the TGI (HL-60(TB) leukemia) was over 100 µM and the GI50 (HOP-62 NSCLC) was 78 µM. The TGI (HOP-62 NSCLC) was over 100 µM, the GI50 (HOP-92 NSCLC) was 54.9 µM and the TGI (HOP-92 NSCLC) was over 100 µM. For the same molecule, the GI50 (HS 578T breast) was 73.4 µM, the TGI (HS 578T breast) was 98.6 µM and the GI50 (HT29 colon) was 27.8 µM. For the same molecule, the TGI (HT29 colon) was 62.6 µM, the GI50 (IGROV1 ovarian) was 21.8 µM and the TGI (IGROV1 ovarian) was 52.2 µM. The GI50 (K-562 leukemia) was 33.5 µM, the TGI (K-562 leukemia) was over 100 µM and the GI50 (KM12 colon) was 46.2 µM. The TGI (KM12 colon) was over 100 µM, the GI50 (LOX IMVI melanoma) was 31.5 µM and the TGI (LOX IMVI melanoma) was 94 µM. For the same molecule, the GI50 (M14 melanoma) was 27.9 µM, the TGI (M14 melanoma) was over 100 µM and the GI50 (MALME-3M melanoma) was 25.8 µM. It also gave a TGI (MALME-3M melanoma) of 81.9 µM, a GI50 (MCF7 breast) of 14.4 µM and a TGI (MCF7 breast) of 36.7 µM. For the same molecule, the GI50 (MDA-MB-231 breast) was 40.8 µM, the TGI (MDA-MB-231 breast) was 80.7 µM and the GI50 (MDA-MB-435) was 43.4 µM. The TGI (MDA-MB-435) was over 100 µM, the GI50 (MDA-N) was 39 µM and the TGI (MDA-N) was over 100 µM. For the same molecule, the GI50 (MOLT-4 leukemia) was 40.1 µM, the TGI (MOLT-4 leukemia) was over 100 µM and the GI50 (NCI-H226 lung) was 31.8 µM. The TGI (NCI-H226 lung) was 94.8 µM, the GI50 (NCI-H23 lung) was 44.4 µM and the TGI (NCI-H23 lung) was 72.7 µM. The GI50 (NCI-H322M lung) was 38.3 µM, the TGI (NCI-H322M lung) was over 100 µM and the GI50 (NCI-H460 lung) was 33.5 µM. For the same molecule, the TGI (NCI-H460 lung) was 71.2 µM, the GI50 (NCI-H522 lung) was 10.5 µM and the TGI (NCI-H522 lung) was 27.2 µM. It also gave a GI50 (NCI/ADR-RES ovarian) of 23 µM, a TGI (NCI/ADR-RES ovarian) of 69.8 µM and a GI50 (OVCAR-3 ovarian) of 5.13 µM. The TGI (OVCAR-3 ovarian) was 58.5 µM, the GI50 (OVCAR-4 ovarian) was 22.6 µM and the TGI (OVCAR-4 ovarian) was 45.4 µM. For the same molecule, the GI50 (OVCAR-5 ovarian) was 42.2 µM, the TGI (OVCAR-5 ovarian) was over 100 µM and the GI50 (OVCAR-8 ovarian) was 22.4 µM. The TGI (OVCAR-8 ovarian) was 49.2 µM, the GI50 (PC-3 prostate) was 32.1 µM and the TGI (PC-3 prostate) was over 100 µM. The GI50 (RPMI-8226 leukemia) was 43.2 µM, the TGI (RPMI-8226 leukemia) was 97 µM and the GI50 (RXF 393 renal) was over 100 µM. For the same molecule, the TGI (RXF 393 renal) was over 100 µM, the GI50 (SF-268 CNS) was 55.2 µM and the TGI (SF-268 CNS) was over 100 µM. The GI50 (SF-295 CNS) was over 100 µM, the TGI (SF-295 CNS) was over 100 µM and the GI50 (SF-539 CNS) was 64.1 µM. For the same molecule, the TGI (SF-539 CNS) was over 100 µM, the GI50 (SK-MEL-2 melanoma) was 75 µM and the TGI (SK-MEL-2 melanoma) was over 100 µM. It also gave a GI50 (SK-MEL-28 melanoma) of over 100 µM, a TGI (SK-MEL-28 melanoma) of over 100 µM and a GI50 (SK-MEL-5 melanoma) of 41.7 µM. For the same molecule, the TGI (SK-MEL-5 melanoma) was 72.3 µM, the GI50 (SK-OV-3 ovarian) was over 100 µM and the TGI (SK-OV-3 ovarian) was over 100 µM. For the same molecule, the GI50 (SN12C renal) was 40.7 µM, the TGI (SN12C renal) was 86.3 µM and the GI50 (SNB-19 CNS) was 61.4 µM. It also gave a TGI (SNB-19 CNS) of over 100 µM, a GI50 (SNB-75 CNS) of over 100 µM and a TGI (SNB-75 CNS) of over 100 µM. For the same molecule, the GI50 (SR leukemia) was 36.6 µM, the TGI (SR leukemia) was over 100 µM and the GI50 (SW-620 colon) was 39.3 µM. It also gave a TGI (SW-620 colon) of over 100 µM, a GI50 (T-47D breast) of 20.2 µM and a TGI (T-47D breast) of 60.5 µM. It also gave a GI50 (TK-10 renal) of over 100 µM, a TGI (TK-10 renal) of over 100 µM and a GI50 (U251 CNS) of 40.6 µM. The TGI (U251 CNS) was over 100 µM, the GI50 (UACC-257 melanoma) was 37.2 µM and the TGI (UACC-257 melanoma) was over 100 µM. The GI50 (UACC-62 melanoma) was 54.9 µM, the TGI (UACC-62 melanoma) was over 100 µM and the GI50 (UO-31 renal) was 40.4 µM. It also gave a TGI (UO-31 renal) of over 100 µM.

Reference: PubChem BioAssay (NCI)
